{
  "source": "patent US20070078109A1",
  "about": "“Compositions and methods used to treat acne and candida” (priority 2004, published 2007)",
  "key": {"[1]": {"test_system": "C. albicans isolates, including one fluconazole-resistant strain", "conditions": "AGP at 0.25% topical, 1-7 days", "procedure": "Pre-clinical studies with three C. albicans isolates, including one fluconazole-resistant strain, were performed using immunosuppressed animals with cyclophosphamide."}, "acne": {"test_system": "acne", "conditions": "acne patients, 4% active AGP formula"}},
  "data": [
    {"substance": "N-acetylglucoseamine (AGA)-glucosamine (GA)-pyrithione (PR) [AGP]", "values": [
      {"measurement": "local adverse effects", "setting": "[1]", "value": "free of local adverse effects"},
      {"measurement": "irritation or other side effects", "setting": "acne", "value": "no irritation or other side effects"}
    ]}
  ]
}
